# Laboratory results: patent publication US20090324489A1 (priority 2005, published 2009)
# Test: Formation of wortmannin from WmC20 conjugates monitored by HPLC
# Conditions: for Wortmannin release / formation seen by HPLC (words): PBS pH 6.8, 37° C.; for Wm Generation By HPLC (3 hr, 37° C.): percentage of wortmannin released after three hours in PBS
# Description: The solutions were incubated in water bath at 37° C. and were analyzed at different time points with HPLC by injecting the solution (10 μL) together with 1 μL internal standard solution (containing 1 μg methyl 4-hydroxybezoate). The initial time point (0 hr) was taken before putting the tube in the water bath. HPLC gradients were adjusted to produce baseline separations. Before the injection, the samples were vortexed briefly and then spun down. Data using this method appear in FIG. 6.
# Compounds (1.8 mg) and 4b (1.3 mg) (examples were weighted into the 1.5 mL tubes and dissolved in PBS buffer (pH 6.8, 400 μL). The solutions were incubated at 37° C. At different time point 20 μL solution was mixed with 1 μL internal standard solution in DMSO (containing 1 μg methyl 4-hydroxybenzoate) and analyzed by HPLC. The initial time point (0 hr) was taken before putting the tube in the water bath. Before the injection, the samples were vortexed briefly and then spun down.
# The following HPLC methods were employed. HPLC (Varian Prostar 210 with a variable wavelength PDA 330 detector) employed reverse phase C18 columns (VYDAC, Cat.#: 218TP 1022 for synthesis; Varian, Cat. #: R0086200C5 for analysis) with water (Millipore, containing 0.1% trifloroacetic acid,) (buffer A) and acetonitrile (containing 20% buffer A) (buffer B) as elution buffer. System 1: buffer A/buffer B (80:20) isocratic for 5 minutes, linear gradient to buffer A/buffer B (20:80) over 40 minutes, then the gradient back to 80:20 in 5 minutes and isocratic for 5 minutes, flow: 4.9 ml/min, λmax: 418 nm (used for purification of 2a); System 2: buffer A/buffer B (80:20) isocratic for 5 minutes, linear gradient to buffer A (buffer B (20:80) over 25 minutes and then isocratic for 5 minutes, then the gradient back to 80:20 in 5 minutes and isocratic for 5 minutes, flow: 6.0 mi/min, λmax: 408 nm (used for purification of 2b); System 3: buffer A/buffer B (70:30) linear gradient to buffer A/buffer B (20:80) over 15 minutes, then gradient back to 70:30 in 3 minutes and isocratic for another 5 minutes, flow: 1.0 ml/min, λmax: 258 nm (System 4: buffer A/buffer B (99:1) linear gradient to buffer A/buffer B (40:60) over 46 minutes, then gradient back to […] in 5 minutes and isocratic for another 5 minutes, flow: 1.0 ml/min, λmax: 250 nm).
Substance,Wortmannin release / formation seen by HPLC (words),"Wm Generation By HPLC (3 hr, 37° C.)",Wortmannin release / formation seen by HPLC (words) (listed as example 13)
WmC2O-N(Me)-hexanoate-Bead [Example 16],evident,,
Wm-N(Me)Hexanoate-BSA conjugate [Example 12],evident,16.5%,
WmC20-NH-hexanoate-BSA conjugate [Example 13],could not be detected,,Slow or undetectable
WmC20-NH-hexanoate-IgG [Example 15],could not be detected,,
WmC20-N(H)-hexanoate-dextran [Example 18],could not be detected,,
WmC20-N(Me)-hexanoate-IgG [Example 14],evident,3.5%,
